One may read the GI50 as the concentration giving 50% growth inhibition.

Chains of the proteins cited; added tags and fusions are not shown.
UniProt Q9UIF8, whole entry: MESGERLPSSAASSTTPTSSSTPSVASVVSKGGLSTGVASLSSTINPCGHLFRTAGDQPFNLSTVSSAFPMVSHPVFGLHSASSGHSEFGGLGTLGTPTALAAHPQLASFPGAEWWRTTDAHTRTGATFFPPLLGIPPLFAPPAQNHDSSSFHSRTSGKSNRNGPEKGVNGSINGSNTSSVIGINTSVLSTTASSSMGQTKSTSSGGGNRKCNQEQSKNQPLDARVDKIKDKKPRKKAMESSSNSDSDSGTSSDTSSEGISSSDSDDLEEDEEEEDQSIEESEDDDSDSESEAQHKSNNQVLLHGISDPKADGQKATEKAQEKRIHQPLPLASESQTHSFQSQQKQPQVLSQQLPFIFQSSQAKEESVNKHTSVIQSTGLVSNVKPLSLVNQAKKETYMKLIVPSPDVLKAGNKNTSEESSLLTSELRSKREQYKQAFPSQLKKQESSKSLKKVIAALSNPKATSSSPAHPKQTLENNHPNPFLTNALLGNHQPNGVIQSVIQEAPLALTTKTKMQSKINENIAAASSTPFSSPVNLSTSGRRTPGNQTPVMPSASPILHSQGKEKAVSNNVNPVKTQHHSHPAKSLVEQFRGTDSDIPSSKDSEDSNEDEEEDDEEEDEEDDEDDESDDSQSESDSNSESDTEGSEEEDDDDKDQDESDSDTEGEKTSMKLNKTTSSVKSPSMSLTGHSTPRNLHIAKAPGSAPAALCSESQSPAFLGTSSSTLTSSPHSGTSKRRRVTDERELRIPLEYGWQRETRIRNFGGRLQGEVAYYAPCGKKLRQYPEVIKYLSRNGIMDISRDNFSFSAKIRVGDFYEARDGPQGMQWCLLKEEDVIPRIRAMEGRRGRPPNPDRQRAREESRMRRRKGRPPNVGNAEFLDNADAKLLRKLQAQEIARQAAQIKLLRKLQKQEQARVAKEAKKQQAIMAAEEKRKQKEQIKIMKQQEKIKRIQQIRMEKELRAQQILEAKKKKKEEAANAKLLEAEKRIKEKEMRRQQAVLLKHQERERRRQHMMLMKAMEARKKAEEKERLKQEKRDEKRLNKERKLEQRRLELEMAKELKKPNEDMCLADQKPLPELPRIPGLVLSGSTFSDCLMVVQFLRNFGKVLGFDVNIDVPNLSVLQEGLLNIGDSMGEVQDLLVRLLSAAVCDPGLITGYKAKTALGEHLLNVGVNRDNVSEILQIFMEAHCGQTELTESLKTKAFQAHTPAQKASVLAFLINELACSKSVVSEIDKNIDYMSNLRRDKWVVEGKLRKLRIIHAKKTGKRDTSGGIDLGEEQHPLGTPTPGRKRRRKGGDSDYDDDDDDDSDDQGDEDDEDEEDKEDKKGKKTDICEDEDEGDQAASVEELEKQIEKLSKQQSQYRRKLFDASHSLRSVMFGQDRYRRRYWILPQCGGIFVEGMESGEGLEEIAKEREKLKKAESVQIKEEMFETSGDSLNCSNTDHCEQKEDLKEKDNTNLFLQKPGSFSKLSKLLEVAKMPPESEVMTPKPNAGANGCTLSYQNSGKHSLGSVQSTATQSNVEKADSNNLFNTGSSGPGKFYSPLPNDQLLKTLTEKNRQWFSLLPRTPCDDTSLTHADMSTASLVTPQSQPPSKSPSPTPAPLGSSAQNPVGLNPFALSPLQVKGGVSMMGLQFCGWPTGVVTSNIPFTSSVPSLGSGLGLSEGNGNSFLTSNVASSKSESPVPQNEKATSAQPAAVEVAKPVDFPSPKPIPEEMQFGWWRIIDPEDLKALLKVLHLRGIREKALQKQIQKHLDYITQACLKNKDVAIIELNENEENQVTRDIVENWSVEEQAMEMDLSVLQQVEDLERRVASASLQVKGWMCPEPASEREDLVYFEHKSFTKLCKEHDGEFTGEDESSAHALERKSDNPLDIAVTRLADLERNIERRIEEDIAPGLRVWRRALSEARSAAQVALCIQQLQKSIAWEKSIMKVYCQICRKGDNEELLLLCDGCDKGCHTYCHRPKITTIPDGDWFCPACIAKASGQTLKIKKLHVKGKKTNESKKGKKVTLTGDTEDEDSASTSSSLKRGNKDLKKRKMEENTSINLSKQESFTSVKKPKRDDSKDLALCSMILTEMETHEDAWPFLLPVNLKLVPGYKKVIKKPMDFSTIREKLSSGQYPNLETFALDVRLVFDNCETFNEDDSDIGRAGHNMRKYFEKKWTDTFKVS
UniProt Q99700, whole entry: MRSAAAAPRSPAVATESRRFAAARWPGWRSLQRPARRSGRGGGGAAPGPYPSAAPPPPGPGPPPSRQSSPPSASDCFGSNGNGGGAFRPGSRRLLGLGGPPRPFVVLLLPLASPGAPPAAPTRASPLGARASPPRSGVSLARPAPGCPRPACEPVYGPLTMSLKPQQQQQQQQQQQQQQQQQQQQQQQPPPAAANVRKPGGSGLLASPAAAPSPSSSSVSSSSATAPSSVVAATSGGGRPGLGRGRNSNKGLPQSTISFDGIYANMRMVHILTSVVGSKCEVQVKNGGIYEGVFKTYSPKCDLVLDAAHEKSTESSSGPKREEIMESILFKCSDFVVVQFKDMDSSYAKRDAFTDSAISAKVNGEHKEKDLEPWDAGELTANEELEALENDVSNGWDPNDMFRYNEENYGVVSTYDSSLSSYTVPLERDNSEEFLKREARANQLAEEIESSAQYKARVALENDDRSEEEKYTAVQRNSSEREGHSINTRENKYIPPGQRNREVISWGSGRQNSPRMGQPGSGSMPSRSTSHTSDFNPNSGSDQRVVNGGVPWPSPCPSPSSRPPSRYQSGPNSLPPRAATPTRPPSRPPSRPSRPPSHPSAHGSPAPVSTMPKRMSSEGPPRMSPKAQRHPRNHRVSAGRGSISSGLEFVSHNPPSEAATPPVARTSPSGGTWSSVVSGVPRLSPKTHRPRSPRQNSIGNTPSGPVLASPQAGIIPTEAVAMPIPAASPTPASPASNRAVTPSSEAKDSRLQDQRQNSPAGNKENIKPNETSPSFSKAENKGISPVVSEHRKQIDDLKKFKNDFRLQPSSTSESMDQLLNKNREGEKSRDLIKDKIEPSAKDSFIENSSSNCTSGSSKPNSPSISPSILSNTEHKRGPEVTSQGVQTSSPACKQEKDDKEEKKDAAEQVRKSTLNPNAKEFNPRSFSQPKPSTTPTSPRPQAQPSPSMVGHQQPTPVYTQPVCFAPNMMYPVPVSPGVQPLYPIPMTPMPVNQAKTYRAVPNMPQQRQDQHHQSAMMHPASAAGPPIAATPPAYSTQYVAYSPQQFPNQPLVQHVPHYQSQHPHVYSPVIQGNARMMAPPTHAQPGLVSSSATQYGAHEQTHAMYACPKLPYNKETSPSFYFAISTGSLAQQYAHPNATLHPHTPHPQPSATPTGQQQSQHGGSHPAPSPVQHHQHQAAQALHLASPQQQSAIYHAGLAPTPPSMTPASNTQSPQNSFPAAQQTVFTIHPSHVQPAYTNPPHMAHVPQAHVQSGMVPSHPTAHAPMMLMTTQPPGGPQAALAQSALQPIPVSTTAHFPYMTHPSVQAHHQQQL

Only a part is listed here, and it is no random draw. Only a part of the results of these assays is listed, not drawn at random. For some of these results: Entries with a potency or affinity are not part of this list. This is one part of the list. Activity calls are given as the source filed them.

The target in assay [1] is T1, Inositol monophosphatase 1 (Rattus norvegicus) (UniProt P97697).
T1 sequence (whole entry): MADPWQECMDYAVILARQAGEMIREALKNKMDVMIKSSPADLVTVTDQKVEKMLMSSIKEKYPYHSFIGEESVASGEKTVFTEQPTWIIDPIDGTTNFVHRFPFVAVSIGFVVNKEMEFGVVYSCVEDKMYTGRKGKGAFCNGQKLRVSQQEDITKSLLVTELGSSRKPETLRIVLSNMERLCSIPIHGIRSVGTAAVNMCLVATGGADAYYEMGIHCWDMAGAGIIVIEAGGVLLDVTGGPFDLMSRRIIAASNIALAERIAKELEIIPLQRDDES
As to the kind of experiment: qHTS Assay for Identifying the Cell-Membrane Permeable IMPase Inhibitors: Potentiation with Lithium. [Related pubchem assays: 901 ]. The class given is functional. (qHTS replaces the single test concentration by a dilution series.)

Assay [2] deals with Bromodomain adjacent to zinc finger domain protein 2B (Homo sapiens) (UniProt Q9UIF8). As to the kind of experiment: qHTS Assay for Inhibitors of BAZ2B. [Related pubchem assays (depositor defined):AID504391]. The class given is functional.
The target of assay [3] is T2, Histone-lysine N-methyltransferase EHMT2 (Homo sapiens) (UniProt Q96KQ7).
T2 sequence (whole entry): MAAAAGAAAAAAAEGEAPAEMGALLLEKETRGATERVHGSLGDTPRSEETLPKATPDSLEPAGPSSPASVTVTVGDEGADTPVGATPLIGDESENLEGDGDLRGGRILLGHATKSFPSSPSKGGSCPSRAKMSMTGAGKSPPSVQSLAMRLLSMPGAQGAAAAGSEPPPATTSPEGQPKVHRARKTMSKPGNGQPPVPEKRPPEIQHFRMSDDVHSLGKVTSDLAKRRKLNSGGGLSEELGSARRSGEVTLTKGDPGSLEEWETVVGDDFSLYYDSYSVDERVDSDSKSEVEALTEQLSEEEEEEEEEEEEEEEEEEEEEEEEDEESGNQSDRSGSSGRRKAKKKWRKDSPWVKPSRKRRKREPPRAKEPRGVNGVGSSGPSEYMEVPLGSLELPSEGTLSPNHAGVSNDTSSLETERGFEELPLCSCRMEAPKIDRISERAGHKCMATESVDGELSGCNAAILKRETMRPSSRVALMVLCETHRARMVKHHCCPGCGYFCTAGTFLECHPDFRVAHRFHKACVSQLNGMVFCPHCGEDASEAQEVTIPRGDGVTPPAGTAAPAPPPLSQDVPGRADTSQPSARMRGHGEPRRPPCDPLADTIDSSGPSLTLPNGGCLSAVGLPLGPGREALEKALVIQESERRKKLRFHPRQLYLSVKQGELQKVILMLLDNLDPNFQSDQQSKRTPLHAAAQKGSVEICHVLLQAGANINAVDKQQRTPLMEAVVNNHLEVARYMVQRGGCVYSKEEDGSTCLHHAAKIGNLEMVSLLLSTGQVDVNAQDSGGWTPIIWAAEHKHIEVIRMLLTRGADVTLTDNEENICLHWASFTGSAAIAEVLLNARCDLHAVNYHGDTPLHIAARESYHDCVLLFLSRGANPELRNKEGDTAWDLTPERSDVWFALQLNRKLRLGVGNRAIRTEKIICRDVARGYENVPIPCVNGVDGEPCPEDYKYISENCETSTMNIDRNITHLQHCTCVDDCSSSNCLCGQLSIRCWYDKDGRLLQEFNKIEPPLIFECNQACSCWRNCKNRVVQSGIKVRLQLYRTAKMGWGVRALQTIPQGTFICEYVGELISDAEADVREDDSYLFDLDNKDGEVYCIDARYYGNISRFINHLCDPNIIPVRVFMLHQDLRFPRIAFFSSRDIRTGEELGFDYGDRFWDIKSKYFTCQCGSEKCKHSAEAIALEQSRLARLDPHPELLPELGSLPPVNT
As to the kind of experiment: qHTS Assay for Inhibitors of Histone Lysine Methyltransferase G9a. [Related pubchem assays (depositor defined):AID504404]. The assay is classed as functional.

The nature of assay [4]: qHTS for induction of synthetic lethality in tumor cells producing 2HG: qHTS for the HT-1080-IDH1KD cell line. The class given is functional.
Assay [5] deals with T3, Thioredoxin reductase 1, cytoplasmic (Rattus norvegicus) (UniProt O89049).
T3 sequence (whole entry): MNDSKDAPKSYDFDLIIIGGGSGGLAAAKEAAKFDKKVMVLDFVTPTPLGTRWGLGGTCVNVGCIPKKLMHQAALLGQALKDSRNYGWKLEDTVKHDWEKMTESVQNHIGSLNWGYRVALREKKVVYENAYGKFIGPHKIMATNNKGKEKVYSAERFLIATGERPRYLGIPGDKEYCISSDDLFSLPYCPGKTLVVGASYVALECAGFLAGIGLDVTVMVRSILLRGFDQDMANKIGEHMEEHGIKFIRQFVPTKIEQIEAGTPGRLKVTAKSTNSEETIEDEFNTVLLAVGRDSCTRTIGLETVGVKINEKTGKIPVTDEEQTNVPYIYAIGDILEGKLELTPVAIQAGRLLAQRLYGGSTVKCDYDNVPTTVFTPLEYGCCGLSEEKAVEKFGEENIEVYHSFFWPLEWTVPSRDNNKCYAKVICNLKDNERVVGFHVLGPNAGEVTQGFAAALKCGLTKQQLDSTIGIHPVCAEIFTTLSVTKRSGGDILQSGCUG
As to the kind of experiment: qHTS Assay for Substrates of Mammalian Selenoprotein Thioredoxin Reductase 1 (TrxR1): qHTS. [Related pubchem assays (depositor defined):AID488771]. The assay is classed as functional.

For assay [6], the target named is T4, Glutaminase kidney isoform, mitochondrial (Homo sapiens) (UniProt O94925).
T4 sequence (whole entry): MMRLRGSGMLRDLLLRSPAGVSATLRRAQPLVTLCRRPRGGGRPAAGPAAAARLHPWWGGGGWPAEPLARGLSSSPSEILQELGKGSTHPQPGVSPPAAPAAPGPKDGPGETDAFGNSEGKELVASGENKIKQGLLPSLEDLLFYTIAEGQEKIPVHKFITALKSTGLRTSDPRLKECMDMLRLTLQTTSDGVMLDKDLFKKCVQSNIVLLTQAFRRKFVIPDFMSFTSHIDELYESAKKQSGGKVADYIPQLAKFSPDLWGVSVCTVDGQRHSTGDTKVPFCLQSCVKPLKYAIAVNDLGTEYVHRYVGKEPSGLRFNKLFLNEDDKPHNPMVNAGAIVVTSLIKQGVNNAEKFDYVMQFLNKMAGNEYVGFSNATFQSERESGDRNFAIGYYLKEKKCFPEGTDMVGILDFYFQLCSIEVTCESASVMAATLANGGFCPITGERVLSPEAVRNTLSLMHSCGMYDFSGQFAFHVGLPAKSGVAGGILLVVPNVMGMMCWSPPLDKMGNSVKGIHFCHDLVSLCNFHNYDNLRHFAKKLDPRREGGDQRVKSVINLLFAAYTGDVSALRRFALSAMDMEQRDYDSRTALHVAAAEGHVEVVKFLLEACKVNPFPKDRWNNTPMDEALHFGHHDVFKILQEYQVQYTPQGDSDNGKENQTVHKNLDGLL
Kind of assay: qHTS for Inhibitors of Glutaminase (GLS). The assay is classed as functional.

A further assay has as its target Ataxin-2 (Homo sapiens) (UniProt Q99700). As to the kind of experiment: qHTS for Inhibitors of ATXN expression. The assay is classed as functional.
Assay [7] addresses Guanine nucleotide-binding protein G(s) subunit alpha isoforms short (Homo sapiens) (UniProt P63092). As to the kind of experiment: qHTS for Antagonists of gsp, the Etiologic Mutation Responsible for Fibrous Dysplasia/McCune-Albright Syndrome: qHTS. The assay is classed as functional.
Assay [8] has as its target T5, Aldehyde dehydrogenase 1A1 (Homo sapiens) (UniProt P00352).
T5 sequence (whole entry): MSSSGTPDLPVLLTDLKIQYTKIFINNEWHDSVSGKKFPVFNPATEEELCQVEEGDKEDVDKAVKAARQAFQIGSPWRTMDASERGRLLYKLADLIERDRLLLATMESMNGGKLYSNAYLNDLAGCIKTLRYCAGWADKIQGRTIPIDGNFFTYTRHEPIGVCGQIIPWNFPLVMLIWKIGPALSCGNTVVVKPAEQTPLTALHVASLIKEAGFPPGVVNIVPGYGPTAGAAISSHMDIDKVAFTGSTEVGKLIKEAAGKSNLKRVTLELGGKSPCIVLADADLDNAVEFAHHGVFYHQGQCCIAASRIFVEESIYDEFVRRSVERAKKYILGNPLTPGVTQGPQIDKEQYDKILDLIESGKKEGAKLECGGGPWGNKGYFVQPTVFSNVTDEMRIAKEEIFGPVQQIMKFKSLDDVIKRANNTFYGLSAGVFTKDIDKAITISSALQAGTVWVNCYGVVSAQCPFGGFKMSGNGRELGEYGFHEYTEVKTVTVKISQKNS
Kind of assay: qHTS Assay for Inhibitors of Aldehyde Dehydrogenase 1 (ALDH1A1). [Related pubchem assays: 1030 (qHTS Validation Assay for Inhibitors of aldehyde dehydrogenase 1 (ALDH1A1))]. The assay is classed as functional.

Assay [9] addresses T6, 4'-phosphopantetheinyl transferase ffp (Bacillus subtilis) (UniProt Q9F4F7).
T6 sequence (whole entry): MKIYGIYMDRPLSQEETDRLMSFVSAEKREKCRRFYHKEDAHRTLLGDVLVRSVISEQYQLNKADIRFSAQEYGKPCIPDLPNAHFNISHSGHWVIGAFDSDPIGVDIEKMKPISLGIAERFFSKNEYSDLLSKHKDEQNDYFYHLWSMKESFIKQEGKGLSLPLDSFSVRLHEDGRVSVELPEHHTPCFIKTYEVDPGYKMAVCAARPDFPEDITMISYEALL
As to the kind of experiment: qHTS Assay for Inhibitors of Bacillus subtilis Sfp phosphopantetheinyl transferase (PPTase). The assay is classed as functional.

As to `N1=C(c2nnn[nH]2)NNC(c2nnn[nH]2)=N1`, the GI50 in the assay with NCI-H23 and in the assay with RXF 393 was inactive: > 100 µM each time.
For `CC1=C[C@H]2O[C@@H]3[C@H](O)[C@@H](O)[C@](C)([C@@]2(O)CC1)[C@]31CO1`, the GI50 with P388/ADR is active: 0.258 µM; in the assay with NCI-H23 it was active: 0.207 µM; in the assay with RXF 393 it was active: 0.218 µM; with SN12K1 it was active: 0.193 µM; in the assay on P388 it was active: 0.0867 µM.
Turning to `C=CCN1CCN(CCOC(=O)C(O)(c2ccccc2)c2ccccc2)CC1`, the Potency entry in assay [1] is “inactive”. The Potency was active: 79.4 µM in assay [2] and active: 44.7 µM in assay [3].
With `O=[N+]([O-])c1cc([N+](=O)[O-])c(NCC2CCS(=O)(=O)C2)c([N+](=O)[O-])c1` (centres undefined), the Potency in [4] is active: 18.4 µM.
Turning to `COc1ccc2c(c1O)-c1c(O)c(OC)cc3c1[C@H](C2)[N+](C)(C)CC3.O=[N+]([O-])c1cc([N+](=O)[O-])c(O)c([N+](=O)[O-])c1[O-]`, the Potency result in [5] and in [6] was “inactive” throughout. The Potency with Ataxin-2 (Homo sapiens) was active: 35.5 µM.
With `CCN(CCO)CCO.Oc1c(Cl)c(Cl)c(Cl)c(Cl)c1Cl`, the GI50 in the assay on NCI-H23 is inactive: 15.3 µM; in the assay with RXF 393, inactive: 32.7 µM.
In the case of `CC(C)N1C(=O)CC2(CCN(CCOC(=O)C(O)(c3ccccc3)c3ccccc3)CC2)C1=O`, the Potency result in [7] is “inactive”.
On to `COc1ccc(OP(C)(=O)Nc2cccc(Br)c2)cc1` (centres undefined), for which the Potency result in [8] was “inactive”.
As for `Cc1cc(C)cc(OP(C)(=O)Nc2ccc(SC(F)(F)F)cc2)c1` (centres undefined), the Potency result in assay [9] is “inactive”.

The record behind these values is ChEMBL document CHEMBL1201862, “PubChem BioAssay data set” (2004).
